The target of the test is T1, anti-PD-1 Nb C12-Fc (Bactrian camel).
T1 construct: VHH C12 selected from a naive Bactrian camel phage display library; Nb C12 fused to the human IgG1 Fc fragment in plasmid pCZN1; about 40 kDa on SDS-PAGE; also called anti-PD-1 Nb-Fc; PD-1 C12 Nb-Fc
Nature of the test: SPR; Biacore 8K; anti-PD-1 Nb-Fc (10 ug/ml) immobilised on CM5 chip to 300 RU; human PD-1 antigen injected from 100 to 0.391 nM; association 120 s, dissociation 300 s. The conditions noted are these: both partners purified. (SPR reads the build-up and loss of mass on a sensor chip optically.)

Drawing on article PMC9867944 (Bioscience Reports, 2023), this text covers Kd for one molecule.

B1: human PD-1 protein (Acro biosystems) (receptor, UniProt Q15116 25-170, looked up)
chain: LDSPDRPWNPPTFSPALLVVTEGDNATFTCSFSNTSESFVLNWYRMSPSNQTDKLAAFPEDRSQPGQDCRFRVTQLPNGRDFHMSVVRARRNDSGTYLCGAISLAPKAQIKESLRAELRVTERRAEVPTAHPSPSPRPAGQFQTLV
notes: programmed death protein 1 (PD-1), human, recombinant protein; probably the extracellular domain; also called human PD-1 antigen; hPD-1; source: bought: Acro biosystems
Usually Kd stands for the free concentration of one partner at which half of the binding sites on the other are occupied at equilibrium, for simple one-to-one binding. The low end stands for a tighter complex, the high end for a looser complex. B1 had a Kd of 6.63 nM.
